Measurements published in patent US6620831B2, “Indazoles substituted with 1,1-dioxoisothiazolidine useful as inhibitors of cell proliferation” (LG Life Sciences Ltd., priority 2000, dated 2003).

Molecular target: T1, CDK2/cyclin A (Homo sapiens, UniProt P24941)
T1 construct: made in house; host or cells: insect ('worm') cells co-infected with baculoviruses
Experiment: CDK2 inhibitory activity (CDK2/cyclin A, [gamma-32P] ATP, histon H1 or Rb protein substrate)
Type: biochemical
Details: first IC50 column (c1) of Table 1
Source text: CDK2 enzyme was obtained from either extract from the worm cell co-infected with baculovirus which expresses a CDK2 gene and baculovirus which expresses a cyclin A gene, or active enzyme purified therefrom. CDK4 was also obtained from either extract from the worm cell co-infected with baculovirus which expresses a CDK4 gene and baculovirus which expresses a cyclin D1 gene. As substrates, histon H1 or Rb protein was used for CDK2, and Rb protein for CDK4. The radioactive activities in substrates were determined by reacting compounds diluted with each concentration with a proper quantity of CDK2/cyclin A or CDK4/cyclin D1 and substrate protein, and [gamma-32P labeled] ATP, and then separating the substrates.
Inhibitory abilities of inhibitors according to the present invention for each enzyme activity were expressed as IC50 values, which were determined in accordance with the method as described above.

For `O=C(Cc1ccc(N2CCCCC2)cc1)Nc1n[nH]c2ccc(N3CCCS3(=O)=O)cc12` [Compound 34, N-[5-(1,1-dioxo-1λ^6-isothiazolidin-2-yl)-1H-indazol-3-yl]-2-[4-(1-piperidinyl)phenyl]acetamide], the IC50 was less than 50 nM.
